Ab-95 light chain CDR variants: yeast mating affinities

Data: MIT Lincoln Laboratory AlphaSeq set, Engelhart et al. 2022, doi:10.1038/s41597-022-01779-4, as distributed in FLAb.

Binding partner: SARS-CoV-2 spike HR2 peptide, sequence PDVDLGDISGINAS.

Parent: Ab-95, a human scFv built as VH, three GGGGS repeats, VL. Only the CDRs of the light chain vary.
VH: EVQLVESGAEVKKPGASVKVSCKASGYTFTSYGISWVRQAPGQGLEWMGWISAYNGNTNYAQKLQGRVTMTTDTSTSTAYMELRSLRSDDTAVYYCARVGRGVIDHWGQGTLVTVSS
VL: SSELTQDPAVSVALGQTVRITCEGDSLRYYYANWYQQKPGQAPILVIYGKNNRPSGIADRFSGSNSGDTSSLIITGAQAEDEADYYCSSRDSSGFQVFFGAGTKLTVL

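The parent was found by panning a naive human phage display library on the peptide. The library (AAYL52) carries one to three amino acid substitutions per variant, with no insertions or deletions. The assay is AlphaSeq: two haploid yeast populations carry antibody and antigen on their surface. Pairs that bind mate more often; barcode pairs of the diploids are counted by sequencing. Read counts were normalised to the haploid input and turned into Kd by a linear fit to BCL2-family pairs of known affinity, for each replicate. Mating was done three times.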

The parent's light chain CDRs are EGDSLRYYYAN, GKNNRPS, SSRDSSGFQVF; each variant's own CDRs replace them letter for letter. Affinities are written as log10 Kd with Kd in nM; a lower number is a better binder. Averages over replicates are reported, and they cover detected replicates only. "nd" marks a missing value. The strain was present, yet no cells mated with the target were sequenced in any replicate, which points to weak or no binding. Three control strains display no target. For library AAYL52, 28% of the pairings with them gave a signal, with a median of 3.91 and one signal in twenty below 2.90, so weak values seen in few replicates may be background. The control count says in how many pairings with the empty strains this scFv gave a signal. For reference, the parent read 2.31 as the reference entry and 2.25 as a member of this library.

| mean log10 Kd (nM) | detected | empty controls | CDR-L1 | CDR-L2 | CDR-L3 |
|---|---|---|---|---|---|
| 3.60 | 3/3 | 5/9 | SGDSLRKYYAN | GKNNRPS | SSRDSSGFQKF |
| 3.96 | 2/3 | 4/9 | EGDSLRYYYAN | GKNNRPS | SSRDISGFQVC |
| 2.96 | 3/3 | 2/9 | EGDSLRTYKAN | GKNNRES | SSRDSSGFQVF |
| 3.88 | 2/3 | 4/9 | EGDYLRYYYAN | GKNWDPS | SSRDSSGFQVF |
| 3.25 | 1/3 | 1/9 | SGDSLRYYYIY | GKNNRPS | SSRDSSGFQVF |
| 2.12 | 3/3 | 4/9 | ETDSLGYYYAN | GKGNRPS | SSRDSSGFQVF |
| 4.36 | 1/3 | 7/9 | EWDSLRYYYAN | GKNNRPS | SSRDSDGFQVI |
| 4.04 | 1/3 | 3/9 | EGDSLRYYYAN | GKYNRPH | SHRDSSGFQVF |
| 2.72 | 3/3 | 3/9 | EGDSLRFYYAN | GKNNRPS | SSRDSSYTQVF |
| 1.97 | 3/3 | 5/9 | EGVSLRYYYAN | GKNNRPM | SSRDSSGFWVF |
| 3.50 | 2/3 | 5/9 | EGDGLRYYYTN | DKNNRPS | SSRDSSGFQVF |
| 1.78 | 3/3 | 6/9 | EGDSLRYYCAN | GKNNRPS | SSRDMSGFQVF |
| 5.17 | 2/3 | 3/9 | EGDLLRYYYAN | GKNNRPS | SSRDSSKFQVF |
| 3.16 | 3/3 | 2/9 | EGDGLRYYYCS | GKNNRPS | SSRDSSGFQVF |
| 3.59 | 2/3 | 0/9 | EGDSLRYAYAN | KKNNRPS | SSQDSSGFQVF |
| 3.62 | 2/3 | 4/9 | EGDSLRYYYAH | GKNNRDS | PSRDSSGFQVF |
| 4.29 | 3/3 | 6/9 | EQDSLRYYYAN | GKNNRPS | SSRDASGFQVF |
| 3.05 | 3/3 | 6/9 | EGDSLRYYYAN | GKNNRPS | SSRDSSGDQYF |
| 3.35 | 2/3 | 5/9 | EGDSNRYYYAN | GKNNRPS | SNRGSSGFQVF |
| 3.35 | 1/3 | 3/9 | ESDSLRYYYAN | EWNNRPS | SSRDSSGFQVF |
| 4.64 | 2/3 | 5/9 | EGDSLRYYWAN | GKNNRPS | SSRDHSYFQVF |
| nd | 0/3 | 4/9 | EGDSLRYFYAN | GKNNRPS | LSRHSSGFQVF |
| nd | 0/3 | 1/9 | EGDSLRYYYAN | MKNNRPS | ASRDSSGFQAF |
| 1.11 | 3/3 | 5/9 | AGDSLRGYYAN | GKNNRPS | SSRDSSGFQVF |
| nd | 0/3 | 2/9 | EGGSLRYYYAQ | GKNNRPS | SSRDSSGVQVF |
| 3.82 | 3/3 | 4/9 | EGDGLRYYGAN | GKNNRPS | SSDDSSGFQVF |
| 4.61 | 2/3 | 3/9 | EGDSLRYYYAH | GKKNRPS | SGRDSSGFQVF |
| 4.97 | 2/3 | 2/9 | EGDSLRYYYAL | GKNNRPS | SLRDSSGFQVF |
| 5.36 | 1/3 | 2/9 | ECDSLRYYYAN | GYNNRPS | SSRDSSGFQVM |
| nd | 0/3 | 1/9 | EGDSLRYYYAN | IKNNRHS | SSRDSVGFQVF |
| 3.48 | 1/3 | 1/9 | EGKSLRAYYAN | GKNNRPS | SSGDSSGFQVF |
| 3.89 | 2/3 | 5/9 | EQDSLRYYYAE | GKNNRPS | SSRQSSGFQVF |
| 4.37 | 1/3 | 1/9 | EGDSLGYYYAN | GKNMRPS | SSGDSSGFQVF |
| nd | 0/3 | 0/9 | EGDSLRYYYAN | GKLNGPS | SSRDSSGFQVW |
| 4.18 | 1/3 | 1/9 | EGDSLRYYYAN | RKNNRFS | DSRDSSGFQVF |
| nd | 0/3 | 1/9 | EGDSLWYYYAN | GKWNRPS | SHRDSSGFQVF |
| nd | 0/3 | 1/9 | PGDSTRYYYAM | GKNNRPS | SSRDSSGFQVF |
| 2.64 | 3/3 | 4/9 | EGDSLRYYYAN | GKNNRPS | DSDDSSGFNVF |
| 2.85 | 3/3 | 1/9 | EGDSLRQYYAN | GKDRRPS | SSRDSSGFQVF |
| 3.33 | 1/3 | 3/9 | AGDSLRYYYAN | GWNNRKS | SSRDSSGFQVF |
| 4.94 | 2/3 | 3/9 | EGVSLRYYYAN | GVNNPPS | SSRDSSGFQVF |
| 3.33 | 3/3 | 1/9 | TGDILRYYPAN | GKNNRPS | SSRDSSGFQVF |
| 1.83 | 3/3 | 1/9 | EGDSLRYQYAN | GTNNRPS | SSRDSSGFQVC |
| 2.50 | 3/3 | 0/9 | EGDSLRYYYAN | GANNRPS | SSRCLSGFQVF |
| 3.26 | 3/3 | 4/9 | EGDSLRYYYAN | GCNNRPS | SSRDSSGEQVF |
| 3.91 | 2/3 | 6/9 | EGDSNRYYYAN | GKNNRDY | SSRDSSGFQVF |
| 4.06 | 1/3 | 0/9 | EGDDLRYYYAN | IKNNRPS | SSRDVSGFQVF |
| 4.20 | 3/3 | 3/9 | EGDSLRYYYAN | GKNNRES | SSRDSSGFYVR |
| 4.06 | 3/3 | 3/9 | EGWSGRYYYAN | GCNNRPS | SSRDSSGFQVF |
| 0.65 | 3/3 | 4/9 | EGDSLRYSYAN | GQNNRHS | SSRDSSGFQVF |
| 2.72 | 3/3 | 1/9 | EGDSLRYYYAN | GKNNRPS | CSRFSSGFQVL |
| 3.08 | 3/3 | 1/9 | ELDSLGYYYAN | GKNNRPC | SSRDSSGFQVF |
| 3.08 | 1/3 | 2/9 | EGDLIRYYYAN | GKNNRPS | SSRDWSGFQVF |
| 2.96 | 3/3 | 1/9 | ESDGLRYYYAN | GKNNRPS | SSRDSSGIQVF |
| 2.00 | 3/3 | 0/9 | EGDSLRYYYAN | GKNNRMS | SSMDSSGFQVF |
| 4.48 | 2/3 | 4/9 | EGDSLPYYYAN | KKNVRPS | SSRDSSGFQVF |
| 2.34 | 3/3 | 1/9 | EGDSLRYSYAN | GKNNRPP | SSRDSSGFQVF |
| nd | 0/3 | 2/9 | EGDSLRWYYAR | GKNNRPS | SSRDSSGFQVQ |
| 4.59 | 1/3 | 3/9 | EGISLRYYYAN | GKNNRPS | MSFDSSGFQVF |
| 3.08 | 1/3 | 3/9 | EGDTLRYYYHN | GKHNRPS | SSRDSSGFQVF |
| 1.77 | 3/3 | 1/9 | EGDSLRYYYAN | GKNSRPS | SSRDSSGFQEF |
| 3.34 | 3/3 | 3/9 | EGDSWRYSYLN | GKNNRPS | SSRDSSGFQVF |
| nd | 0/3 | 1/9 | EGDCLRYYYAN | GKNNRRS | SSRDSSSFQVF |
| 3.25 | 1/3 | 3/9 | EGVSLRYYYAN | GKNNRPS | SSRYSSGFYVF |
| 2.40 | 3/3 | 6/9 | GGDSLRYYYAN | GKNNRPS | SSRDSWGFQRF |
| 3.02 | 3/3 | 2/9 | EGDSLKYYYAF | GKNNRPS | CSRDSSGFQVF |

For reference, 6 entries of the list once more:

| CDR-L1 | CDR-L2 | CDR-L3 | mean log10 Kd (nM) | detected | empty controls |
|---|---|---|---|---|---|
| EGDGLRYYGAN | GKNNRPS | SSDDSSGFQVF | 3.82 | 3/3 | 4/9 |
| EGDSLRYSYAN | GKNNRPP | SSRDSSGFQVF | 2.34 | 3/3 | 1/9 |
| EGDSLRFYYAN | GKNNRPS | SSRDSSYTQVF | 2.72 | 3/3 | 3/9 |
| ESDSLRYYYAN | EWNNRPS | SSRDSSGFQVF | 3.35 | 1/3 | 3/9 |
| EGDSLRQYYAN | GKDRRPS | SSRDSSGFQVF | 2.85 | 3/3 | 1/9 |
| EGDYLRYYYAN | GKNWDPS | SSRDSSGFQVF | 3.88 | 2/3 | 4/9 |